Experiments:
BTK(WT) kinase = BTK(WT) kinase (Homo sapiens, UniProt Q06187); assay: Inhibitory activity against BTK(WT) kinase; details: read-out: BTK(WT) kinase inhibition IC50(nM )
Experimental: (§1) BTK kinase solution (concentration: 0.003 ng/µL) was added to assay wells at 6 µL/well, and different compounds dissolved in DMSO were added to the assay wells separately using a nanoliter pipettor, such that the final concentrations of the compounds were 1000 nM to 0.244 nM. The wells were set in duplicate, and a control well was set. After a 30-min incubation of the above system, ATP (concentration: 50 µM) was mixed with ULight-poly GT substrate (manufacturer: PerkinElmer, concentration: 0.5 µM) in a ratio of 1:1, and the mixture was added to the assay wells at 4 µL/well. The resulting mixture was left to react at room temperature for 2 h, and then 5 µL of EDTA was added to terminate the reaction, followed by the addition of 5 µL of a detection antibody (manufacturer: PerkinElmer, concentration: 8 nM). The mixture was incubated at room temperature for 1 h. The assay was performed using a PerkinElmer Envision multifunctional microplate reader (excitation: 320 nm, emission: 615 nm/665 nm), and IC50 was calculated by four-parameter fitting.

Protein sequences, listed by entry. Tags and fused reporters are not part of them. Lines headed by an entry give the natural chain unless they say otherwise; changes in a name come on top.
UniProt Q06187, whole entry: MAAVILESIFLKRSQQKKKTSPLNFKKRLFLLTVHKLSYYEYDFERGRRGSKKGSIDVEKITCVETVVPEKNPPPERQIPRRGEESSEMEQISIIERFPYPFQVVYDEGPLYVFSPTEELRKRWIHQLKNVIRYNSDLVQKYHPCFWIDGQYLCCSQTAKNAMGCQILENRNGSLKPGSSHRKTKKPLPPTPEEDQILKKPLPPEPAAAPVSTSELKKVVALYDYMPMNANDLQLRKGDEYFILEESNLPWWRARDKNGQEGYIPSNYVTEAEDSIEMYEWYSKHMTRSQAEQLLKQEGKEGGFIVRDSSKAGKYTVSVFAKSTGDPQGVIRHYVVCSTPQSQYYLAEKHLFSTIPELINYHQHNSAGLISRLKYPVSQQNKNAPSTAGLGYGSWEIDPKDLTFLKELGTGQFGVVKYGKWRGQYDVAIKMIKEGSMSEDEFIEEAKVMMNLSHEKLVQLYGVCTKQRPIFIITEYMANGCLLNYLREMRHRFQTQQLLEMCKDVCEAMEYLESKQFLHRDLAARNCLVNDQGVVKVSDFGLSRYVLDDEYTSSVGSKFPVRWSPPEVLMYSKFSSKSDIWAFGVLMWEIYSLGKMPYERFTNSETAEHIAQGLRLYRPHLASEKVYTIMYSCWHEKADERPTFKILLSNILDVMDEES
UniProt Q06187, whole entry C481S: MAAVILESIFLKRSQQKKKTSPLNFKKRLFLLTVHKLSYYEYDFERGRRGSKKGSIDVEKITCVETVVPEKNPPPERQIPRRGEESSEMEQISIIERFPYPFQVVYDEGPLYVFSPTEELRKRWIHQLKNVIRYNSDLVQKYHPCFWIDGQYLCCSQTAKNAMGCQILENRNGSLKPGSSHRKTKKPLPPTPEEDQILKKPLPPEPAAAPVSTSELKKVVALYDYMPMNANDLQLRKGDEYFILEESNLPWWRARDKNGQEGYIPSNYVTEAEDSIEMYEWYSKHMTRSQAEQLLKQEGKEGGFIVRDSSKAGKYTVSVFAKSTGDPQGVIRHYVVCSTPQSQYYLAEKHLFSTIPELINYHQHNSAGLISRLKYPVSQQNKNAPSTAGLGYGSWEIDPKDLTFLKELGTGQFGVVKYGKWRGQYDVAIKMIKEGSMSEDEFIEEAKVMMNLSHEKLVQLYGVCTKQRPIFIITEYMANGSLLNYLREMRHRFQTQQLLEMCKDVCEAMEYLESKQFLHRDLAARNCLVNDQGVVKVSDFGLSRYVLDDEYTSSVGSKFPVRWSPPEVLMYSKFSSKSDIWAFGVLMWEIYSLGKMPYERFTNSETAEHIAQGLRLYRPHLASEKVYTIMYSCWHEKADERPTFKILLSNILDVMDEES

BTK(C481S) kinase = BTK(C481S) kinase (Homo sapiens, UniProt Q06187, C481S); assay: Inhibitory activity against BTK(C481S) kinase; details: read-out: BTK(C481S) kinase inhibition IC50(nM )
Experimental: as §1, with “BTK(C481S)” for “BTK”, “0.006” for “0.003”, “fitting. The test results are shown in Table 3, where A represents: the IC50 value ≤ 10 nM.” for “fitting.”

OCI-LY10 cells = assay: Inhibitory activity against OCI-LY10 cell proliferation (CCK-8); details: 72 h incubation
Experimental: OCI-LY10 cells in a good growth state were collected into a centrifuge tube, adjusted to a cell density of 9 × 10^4 cells/mL using an assay medium (1640 + 10% FBS), and seeded onto a 96-well plate (100 µL/well). The cells were incubated overnight in a cell incubator. Compounds were added using a nanoliter pipettor such that the final concentrations of the compounds were 1000 nM to 1.64 nM (the addition was performed in duplicate). Meanwhile, a control was set. After 72 h of incubation in the cell incubator, the assay reagent CCK-8 (manufacturer: Dojindo Laboratories; 10 µL/well) was added. After 4 h of incubation in the cell incubator, the absorbance values were measured at 450 nm on a PerkinElmer Envision microplate reader. A four-parameter analysis was performed, a dose-response curve was fitted, and IC50 was calculated. Table 1. Inhibitory activity against OCI-LY10 cell proliferation

[2H]C([2H])([2H])N1CCN(c2ccc(Nc3cnn(-c4ccc(CNc5nccc6c(F)ccc(OC)c56)cc4)c3C(N)=O)nc2C(OC)C2CC2)CC1 (stereo not shown)
IC50 (BTK(WT) kinase): < 10 nM | IC50 (BTK(C481S) kinase): < 10 nM | IC50 (OCI-LY10 cells): < 10 nM

[2H]C([2H])([2H])OCc1nc(Nc2cnn(-c3ccc(CNC(=O)c4cc(F)cc5cccnc45)cc3)c2C(N)=O)ccc1N1CCN(CCOC)CC1
IC50 (BTK(WT) kinase): < 10 nM | IC50 (BTK(C481S) kinase): < 10 nM | IC50 (OCI-LY10 cells): < 10 nM

[2H]C([2H])([2H])OC(C)c1nc(Nc2cnn(-c3ccc(CNc4nccc5c(F)ccc(OC)c45)cc3)c2C(N)=O)ccc1N1CCN(CCOC)CC1 (stereo not shown)
IC50 (BTK(WT) kinase): < 10 nM | IC50 (BTK(C481S) kinase): < 10 nM | IC50 (OCI-LY10 cells): < 10 nM

COc1ccc(F)c2cc(C)nc(NCc3ccc(-n4ncc(Nc5ccc(N6CCN(C7COC7)CC6)c(C(O)C(F)(F)F)n5)c4C(N)=O)cc3)c12 (racemic)
IC50 (BTK(WT) kinase): < 10 nM | IC50 (BTK(C481S) kinase): < 10 nM | IC50 (OCI-LY10 cells): < 10 nM

C=CCCC(O)c1nc(Nc2cnn(-c3ccc(CNC(=O)c4cc(F)cc5cccnc45)cc3)c2C(N)=O)ccc1N1CCN(C)CC1 (stereo not shown)
IC50 (BTK(WT) kinase): < 10 nM | IC50 (BTK(C481S) kinase): < 10 nM | IC50 (OCI-LY10 cells): < 10 nM

NC(=O)c1c(Nc2ccc(C3CCN(C4COC4)CC3)c(C(O)C3CC3)n2)cnn1-c1ccc(CNC(=O)c2cc(F)cc3cccnc23)cc1 (stereo not shown)
IC50 (OCI-LY10 cells): < 10 nM

COCCN1CCN(c2ccc(Nc3cnn(-c4ccc(CNC(=O)c5cc(F)cc6cccnc56)cc4)c3C(N)=O)nc2C(O)C2CC2)CC1 (stereo not shown)
IC50 (BTK(WT) kinase): < 10 nM | IC50 (BTK(C481S) kinase): < 10 nM | IC50 (OCI-LY10 cells): < 10 nM

COc1ccc(F)c2ccnc(NCc3ccc(-n4ncc(Nc5ccc(N6CCC(N(C)C)CC6)c(C(OC)C6CC6)n5)c4C(N)=O)cc3)c12 (single isomer, unassigned)
IC50 (OCI-LY10 cells): < 10 nM

COc1ccc(F)c2ccnc(NCc3ccc(-n4ncc(Nc5ccc(NC6CCC(N(C)C)CC6)c(C)n5)c4C(N)=O)cc3)c12 (single isomer, unassigned)
IC50 (BTK(WT) kinase): < 10 nM | IC50 (BTK(C481S) kinase): < 10 nM | IC50 (OCI-LY10 cells): < 10 nM

COCCN1CCN(c2ccc(Nc3cnn(-c4ccc(CNC(=O)c5cc(F)cc6cccnc56)cc4)c3C(N)=O)nc2C(C)OC)CC1 (racemic)
IC50 (BTK(WT) kinase): < 10 nM | IC50 (BTK(C481S) kinase): < 10 nM | IC50 (OCI-LY10 cells): < 10 nM

CN(C)C1CCN(c2ccc(Nc3cnn(-c4ccc(CNC(=O)c5cc(F)cc6cccnc56)cc4)c3C(N)=O)nc2C(O)C(F)(F)F)CC1 (stereo not shown)
IC50 (BTK(WT) kinase): < 10 nM | IC50 (BTK(C481S) kinase): < 10 nM | IC50 (OCI-LY10 cells): < 10 nM

CCC(OC)c1nc(Nc2cnn(-c3ccc(CNc4nccc5c(F)ccc(OC)c45)cc3)c2C(N)=O)ccc1N1CCN(C2COC2)CC1 (stereo not shown)
IC50 (OCI-LY10 cells): < 10 nM

COC(c1nc(Nc2cnn(-c3ccc(CNC(=O)c4cc(F)cc5cccnc45)cc3)c2C(N)=O)ccc1N1CCN(C)CC1)C1CC1 (stereo not shown)
IC50 (OCI-LY10 cells): < 10 nM

[2H]C([2H])([2H])OCCN1CCN(c2ccc(Nc3cnn(-c4ccc(CNc5nccc6c(F)ccc(OC)c56)cc4)c3C(N)=O)nc2C(C)OC([2H])([2H])[2H])CC1 (stereo not shown)
IC50 (BTK(WT) kinase): < 10 nM | IC50 (BTK(C481S) kinase): < 10 nM | IC50 (OCI-LY10 cells): < 10 nM

CCC(O)c1nc(Nc2cnn(-c3ccc(CNC(=O)c4cc(F)cc5cccnc45)cc3)c2C(N)=O)ccc1N1CCN(C2COC2)CC1 (single isomer, unassigned)
IC50 (OCI-LY10 cells): < 10 nM

COCCN1CCN(c2ccc(Nc3cnn(-c4ccc(CNC(=O)c5cc(F)cc6cccnc56)cc4)c3C(N)=O)nc2C(C)O)[C@@H](C)C1 (stereo partly shown)
IC50 (OCI-LY10 cells): < 10 nM

C[C@@H]1CN(C2COC2)CCN1c1ccc(Nc2cnn(-c3ccc(CNC(=O)c4cc(F)cc5cccnc45)cc3)c2C(N)=O)nc1C(O)C(F)(F)F (single isomer, unassigned)
IC50 (BTK(WT) kinase): < 10 nM | IC50 (BTK(C481S) kinase): < 10 nM | IC50 (OCI-LY10 cells): < 10 nM

COCCN1CCN(c2ccc(Nc3cnn(-c4ccc(CNc5nccc6c(F)ccc(OC)c56)cc4)c3C(N)=O)nc2C(OC)C2CC2)CC1 (racemic)
IC50 (OCI-LY10 cells): < 10 nM

COc1ccc(F)c2cc(C)nc(NCc3ccc(-n4ncc(Nc5ccc(N6CCN(C7COC7)CC6)c(C(O)C6CC6)n5)c4C(N)=O)cc3)c12 (stereo not shown)
IC50 (OCI-LY10 cells): < 10 nM

[2H]C([2H])([2H])OC(c1nc(Nc2cnn(-c3ccc(CNC(=O)c4cc(F)cc5cccnc45)cc3)c2C(N)=O)ccc1N1CCN(C2CC2)CC1)C1CC1 (stereo not shown)
IC50 (OCI-LY10 cells): < 10 nM

COCCN1CCN(c2ccc(Nc3cnn(-c4ccc(CNC(=O)c5cc(F)cc6cccnc56)cc4)c3C(N)=O)nc2C(C)O)CC1 (racemic)
IC50 (BTK(WT) kinase): < 10 nM | IC50 (BTK(C481S) kinase): < 10 nM

CN1CCN(c2ccc(Nc3cnn(-c4ccc(CNC(=O)c5cc(F)cc6cccnc56)cc4)c3C(N)=O)nc2)CC1
IC50 (BTK(WT) kinase): < 10 nM | IC50 (BTK(C481S) kinase): < 10 nM

COCCN1CCC(c2ccc(Nc3cnn(-c4ccc(CNc5nccc6c(F)ccc(OC)c56)cc4)c3C(N)=O)nc2C(C)O)CC1 (single isomer, unassigned)
IC50 (OCI-LY10 cells): < 10 nM

COCCN1CCN(c2ccc(Nc3cnn(-c4ccc(CNC(=O)c5cc(F)cc6cccnc56)cc4)c3C(N)=O)nc2C(O)C(F)F)CC1 (racemic)
IC50 (OCI-LY10 cells): < 10 nM

COc1ccc(F)c2ccnc(NCc3ccc(-n4ncc(Nc5ccc(N6CCN(C)CC6)c(C(O)C(F)(F)F)n5)c4C(N)=O)cc3)c12 (racemic)
IC50 (BTK(WT) kinase): < 10 nM | IC50 (BTK(C481S) kinase): < 10 nM

COc1ccc(F)c2ccnc(NCc3ccc(-n4ncc(Nc5ccc(N6CCN(C7COC7)CC6)c(C(O)C(F)(F)F)n5)c4C(N)=O)cc3)c12 (racemic)
IC50 (BTK(WT) kinase): < 10 nM | IC50 (BTK(C481S) kinase): < 10 nM

COc1ccc(F)c2ccnc(NCc3ccc(-n4ncc(Nc5ccc(N6CCN(C)CC6)c(C(O)C(F)(F)F)n5)c4C(N)=O)cc3)c12 (single isomer, unassigned)
IC50 (OCI-LY10 cells): < 10 nM

COCCN1CCN(c2ccc(Nc3cnn(-c4ccc(CNc5nc(C)cc6c(F)ccc(OC)c56)cc4)c3C(N)=O)nc2C(O)C(F)(F)F)CC1 (stereo not shown)
IC50 (BTK(WT) kinase): < 10 nM | IC50 (BTK(C481S) kinase): < 10 nM

CN1CCN(c2ccc(Nc3cnn(-c4ccc(CNC(=O)c5cc(F)cc6cccnc56)cc4)c3C(N)=O)cc2)CC1
IC50 (BTK(WT) kinase): < 10 nM | IC50 (BTK(C481S) kinase): < 10 nM

CCC(OC1CC1)c1nc(Nc2cnn(-c3ccc(CNc4nc(C)cc5c(F)ccc(OC)c45)cc3)c2C(N)=O)ccc1N1CCN(C2COC2)CC1 (racemic)
IC50 (OCI-LY10 cells): < 10 nM

COc1ccc(F)c2ccnc(NCc3ccc(-n4ncc(Nc5ccc(N6CCN(C)CC6)c(C(OC)C6CC6)n5)c4C(N)=O)cc3)c12 (stereo not shown)
IC50 (OCI-LY10 cells): < 10 nM

COc1ccc(F)c2ccnc(NCc3ccc(-n4ncc(Nc5ccc(C6CCN(C7COC7)CC6)c(C(O)C6CC6)n5)c4C(N)=O)cc3)c12 (stereo not shown)
IC50 (OCI-LY10 cells): < 10 nM

COCCN1CCN(c2ccc(Nc3cnn(-c4ccc(CNC(=O)c5cc(F)cc6cccnc56)cc4)c3C(N)=O)nc2C(OC)C2CC2)CC1 (stereo not shown)
IC50 (OCI-LY10 cells): < 10 nM

COCCN1CCN(c2ccc(Nc3cnn(-c4ccc(CNc5nccc6c(F)ccc(OC)c56)cc4)c3C(N)=O)nc2C(OC)C2CC2)CC1 (single isomer, unassigned)
IC50 (OCI-LY10 cells): < 10 nM

COc1ccc(F)c2cc(C)nc(NCc3ccc(-n4ncc(Nc5ccc(NC6CCC(N(C)C)CC6)cn5)c4C(N)=O)cc3)c12 (single isomer, unassigned)
IC50 (BTK(WT) kinase): < 10 nM | IC50 (BTK(C481S) kinase): < 10 nM

COc1ccc(F)c2ccnc(NCc3ccc(-n4ncc(Nc5ccc(NC6CCC(N(C)C)CC6)cn5)c4C(N)=O)cc3)c12 (stereo not shown)
IC50 (BTK(WT) kinase): < 10 nM | IC50 (BTK(C481S) kinase): < 10 nM

C=CCCC(O)c1nc(Nc2cnn(-c3ccc(CNc4nccc5c(F)ccc(OC)c45)cc3)c2C(N)=O)ccc1N1CCN(C)CC1 (stereo not shown)
IC50 (OCI-LY10 cells): < 10 nM

COc1ccc(F)c2cc(C)nc(NCc3ccc(-n4ncc(Nc5ccc(N6CCN(C7COC7)CC6)c(C(O)C(F)(F)F)n5)c4C(N)=O)cc3)c12 (single isomer, unassigned)
IC50 (OCI-LY10 cells): < 10 nM

CCC(OC)c1nc(Nc2cnn(-c3ccc(CNC(=O)c4cc(F)cc5cccnc45)cc3)c2C(N)=O)ccc1N1CCN(C2COC2)CC1 (stereo not shown)
IC50 (OCI-LY10 cells): < 10 nM

COC(c1nc(Nc2cnn(-c3ccc(CNC(=O)c4cc(F)cc5cccnc45)cc3)c2C(N)=O)ccc1N1CCN(C2COC2)CC1)C1CC1 (stereo not shown)
IC50 (OCI-LY10 cells): < 10 nM

COCCN1CCN(c2ccc(Nc3cnn(-c4ccc(CNC(=O)c5cc(F)cc6cccnc56)cc4)c3C(N)=O)nc2C(C)O)CC1 (single isomer, unassigned)
IC50 (OCI-LY10 cells): < 10 nM

COCCN1CCN(c2ccc(Nc3cnn(-c4ccc(CNc5nccc6c(F)ccc(OC)c56)cc4)c3C(N)=O)nc2C(O)C(F)(F)F)CC1 (single isomer, unassigned)
IC50 (OCI-LY10 cells): < 10 nM

CN1CCN(c2ccc(Nc3cnn(-c4ccc(CNC(=O)c5cc(F)cc6cccnc56)cc4)c3C(N)=O)nc2C(O)C2CC2)CC1 (single isomer, unassigned)
IC50 (OCI-LY10 cells): < 10 nM

From EP4825855A1, “COMPOUND CONTAINING PYRAZOLE RING AND BICYCLIC HETEROARYL GROUP, PHARMACEUTICAL COMPOSITION THEREOF AND USE THEREOF” (dated 2026)
